Publication PMC7591920 (Nature Communications, 2020)

Columns and labels:
[1] = molecular target: T1, GST-hTEAD1(209-426) (human, UniProt P28347 209-426); assay: SPR; GST-hTEAD1 or mTEAD4 amine-coupled to a CM5 chip (10 mM MES pH 6.4), peptides as analytes; 10 mM HEPES, 150 mM NaCl, 0.05% Tween-20, pH 7.4, 20 °C, 30 µL/min; steady-state fit, 1:1 model; conditions: both partners purified
T1 construct: A 3C protease site stands between tags and protein; also called human TEAD1; source: E. coli BL21 DE3 RIL, purified (His Trap, SEC); not shown: GST, N-terminal, kept

[2] = molecular target: T1, GST-hTEAD1(209-426); assay: fluorescence polarisation; direct: FITC-labelled peptide (10 nM) titrated with hTEAD1 or mTEAD4; 10 mM HEPES, 150 mM NaCl, 0.1% Tween-20, pH 7.4; read after 1 h; conditions: both partners purified

- Kd [1]: 1800 nM
B1: YAP(50-100) (peptide, UniProt P46937 50-100, looked up)
peptide: AGHQIVHVRGDSETDLEALFNAVMNPKTANVPQTVPMRLRKLPDSFFKPPE
notes: yes-associated protein YAP, residues 50-100

- Kd [2]: 15.5 ± 1.4 nM
B2: FITC-labelled YAP(50-100) (peptide, UniProt P46937 50-100, looked up)
peptide: B1 peptide
modifications: FITC label
notes: yes-associated protein YAP, residues 50-100; also called FITC-YAP

One block for each binder: values may come before it.
